Yeast mating assay B: variants of the scFv Ab-14

The target is the same throughout: PDVDLGDISGINAS, from the HR2 region of SARS-CoV-2 spike.

Each scFv is VH, the linker GGGGSGGGGSGGGGS, VL, as in the parent Ab-14, and differs from it in the CDRs of the light chain only.
VH: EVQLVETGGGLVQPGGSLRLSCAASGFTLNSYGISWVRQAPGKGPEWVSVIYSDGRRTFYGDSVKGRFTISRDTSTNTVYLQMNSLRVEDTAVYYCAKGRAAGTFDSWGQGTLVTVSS
VL: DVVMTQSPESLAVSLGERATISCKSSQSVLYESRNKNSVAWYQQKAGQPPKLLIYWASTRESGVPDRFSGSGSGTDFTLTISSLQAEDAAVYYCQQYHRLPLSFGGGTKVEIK

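The parent was found by panning a naive human phage display library on the peptide. These sequences belong to a second round, designed from the earlier measurements on random variants of the parent. Group labels follow the data file (Ctrl: baseline library sampled from a position-specific scoring matrix, with some repeated check sequences; En: ensemble of fine-tuned language models; GP: Gaussian process model; HC: hill climbing; Gen: genetic algorithm; Gibbs: Gibbs sampling; a sequence that several methods proposed may carry one label only). The assay is AlphaSeq: two haploid yeast populations carry antibody and antigen on their surface. Binding brings cells together so that they mate, and sequencing counts the barcode pairs among the diploids. A regression on co-assayed BCL2-family reference pairs converts the normalised counts of each replicate to an apparent Kd. The assay was run in six technical replicates.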

The parent's light chain CDRs are KSSQSVLYESRNKNSVA, WASTRES, QQYHRLPLS; each variant's own CDRs replace them letter for letter. Scale: log10 of Kd in nM, estimated from mating counts; low values are strong binders. Replicates are averaged; those with no signal do not enter the mean. Where no diploid with the target was found in that replicate, the entry reads "nd": below detection, most likely a poor binder, though not proof of it.

replicates, log10 nM	log10 Kd (nM), mean	CDR-L1	CDR-L2	CDR-L3	group
nd / nd / nd / nd / nd / nd	nd	KFSQSVLYESSNKNSVA	WVSTRES	QQVHRLPLS	Ctrl
1.07 / 0.87 / 0.95 / 1.17 / 0.65 / 0.85	0.93	MISQVTGLGQRHRNNVA	QTSTREP	QQYDRLPLI	En_Gen
0.02 / -0.18 / -0.14 / -0.29 / -0.35 / -0.14	-0.18	KFEQLVLPEDRNKNSVA	NASLRED	QQYHRLPLS	GP_Gibbs
0.70 / 0.66 / 0.49 / 0.97 / 0.39 / 0.47	0.61	TIGGTLMYGVMNRSNVA	EVSERLN	QQYDRLPLI	En_Gen
0.57 / 0.26 / -0.06 / -0.02 / 0.05 / 0.21	0.17	KLSQSELYESRNKNSVA	NASTRMQ	QQYHRLPLS	GP_Gen
2.93 / 2.97 / 2.33 / 1.94 / 2.27 / 3.13	2.59	NFSQMVSTGMTLRNSVA	HASMRFN	QQYHRLPLI	En_HC
0.64 / 0.22 / 0.23 / 0.18 / 0.16 / 0.33	0.29	KLDQKNRWNGMANYNVA	DSNTRVD	QQYHRLPLI	En_Gibbs
0.60 / 0.56 / 0.21 / 0.54 / 0.21 / 0.48	0.43	TISQMLLMQTSHKNNVA	GEETRYS	QQYHRLPLS	En_HC
1.26 / 1.70 / 1.42 / 1.46 / 1.17 / 1.38	1.40	VLQQSVCMESRNKNSVA	NASKREE	QQYHRLPLS	GP_Gibbs
0.30 / 0.10 / 0.11 / 0.14 / 0.16 / 0.14	0.16	KLRQSCLYEDRNKNSVA	NASQRCS	QQYHRLPLS	GP_Gibbs
0.00 / 0.05 / -0.09 / -0.18 / -0.08 / 0.24	-0.01	KMQGSVMMLSRNDNSVA	DASTREE	QQYHRLPLS	GP_Gibbs
1.69 / nd / 1.89 / 1.43 / 0.41 / 1.06	1.30	KSSISVLYESNNKNSVA	WASTRES	QQYHRLPLS	Ctrl
0.41 / 0.10 / 0.07 / 0.45 / 0.19 / 0.59	0.30	KYSQQMLYSSRNKNNVA	EASHRES	QQYHRLPLS	GP_Gibbs
0.91 / 0.82 / 0.69 / 0.82 / 0.82 / 0.89	0.83	MMSQVTGMGSRQRNNVA	QTSTREP	QQYDRLPLV	En_Gen
0.81 / 1.30 / 1.60 / 1.91 / 1.54 / 2.93	1.68	MISQLFMYGTRNYNSIA	QASTREK	QQYDRLPLE	En_HC
-0.18 / -0.10 / -0.34 / -0.35 / -0.13 / 0.07	-0.17	KLEQSVLYEERNKNSVA	NASTRES	QQYHRLPLS	GP_Gen
0.41 / 0.59 / 0.47 / 0.35 / 0.35 / 0.87	0.51	AIKQLWSTMGAARHNVA	EADTRAI	QDYFRLPLI	En_Gibbs
nd / nd / nd / nd / nd / nd	nd	NISIEDYSEHNFANNVA	STDCRCD	QQYFMLPLM	En_Gibbs
0.17 / -0.01 / 0.03 / 0.09 / -0.02 / 0.04	0.05	KLSQKVLYESRNKNSVA	NASTRES	QQYHRLPLS	GP_Gen
0.64 / 0.55 / 0.51 / 0.36 / 0.65 / 0.80	0.59	KLTMVTGTEKVRGNNVA	EMETRES	QQYNRLPLS	En_Gen
0.23 / 0.02 / -0.07 / 0.10 / -0.02 / 0.23	0.08	TISQVMNTLTRNGNNVA	DLQEREK	QQYFRLPLS	En_Gen
0.76 / 0.60 / 0.74 / 0.65 / 0.64 / 0.87	0.71	KMSQEVPLESRNDNAVA	MASTRMM	QQYHRLPLS	GP_Gibbs
1.58 / 0.43 / 0.62 / 1.34 / 1.94 / 2.09	1.33	MVTQMAMSGMTNKRSVA	NAETRED	QQYNRLPLI	En_Gen
0.90 / 0.66 / -0.09 / 1.03 / 1.04 / 1.38	0.82	MISQLYNMGQFAINSVA	QASYRNE	QQYDRLPLM	En_Gen
0.75 / 1.42 / 0.63 / 1.00 / 1.22 / 1.02	1.01	SLMQVGGYETNNKNSIA	DLRTRES	QQYHRLPLS	En_HC
1.62 / 2.65 / 2.24 / 2.79 / 1.90 / 1.68	2.15	KSSQSVLEESRNKNSVA	WASTRES	QQYHNLPLS	Ctrl
0.48 / 0.36 / 0.23 / 0.39 / 0.84 / 0.40	0.45	KSSISYLYESENKQSVA	EASQRES	QQYHRLPLS	GP_HC
-0.08 / -0.47 / -0.09 / -0.60 / -1.07 / -0.01	-0.39	KLSQSVNYLTRVMNSVA	DNSTRES	QQYFRLPLS	En_HC
0.20 / 0.17 / -0.14 / -0.33 / 0.05 / 0.03	0.00	KAPQSDWYESRNKNSVA	SASTRSQ	QQYHRLPLS	GP_Gibbs
0.00 / -0.09 / -0.01 / 0.04 / -0.23 / 0.00	-0.05	NISQMFLMETKNVNNVA	QTSTREE	QDYHRLPLS	En_HC
0.25 / 0.08 / -0.33 / 0.02 / -0.03 / 0.38	0.06	KQQQSELGLSRNMNSVA	HASTRES	QQYHRLPLS	GP_Gibbs
1.93 / 2.07 / 0.98 / 0.74 / 1.32 / 1.28	1.39	KVSMFMRGLMSRQDSIA	DNVTRGN	QQYDRLPLS	En_Gen
-0.16 / -0.07 / -0.20 / -0.21 / -0.20 / -0.08; 0.12 / 0.13 / 0.64 / -0.17 / -0.27 / 0.30	-0.01	KVSQSVLYEGRNKNSVA	NASTRES	QQYHRLPLS	Ctrl+GP_Gen
0.10 / 0.10 / -0.04 / 0.11 / 0.07 / 0.32	0.11	KLPQQWLYESRNKNSVA	SASTRES	QQYHRLPLS	GP_HC
0.02 / -0.03 / -0.12 / -0.28 / -0.26 / 0.03	-0.11	KLSQSVLYESRNKNSVA	NASTREY	QQYHRLPLS	GP_Gen
nd / nd / nd / nd / nd / nd	nd	KSSQSVLYESWNKNSVA	YASTRES	LQYHRLPLS	Ctrl
0.31 / 0.23 / 0.19 / -0.02 / 0.22 / 0.41	0.22	MVTQMAMSGMTNKRNVA	NAETREA	QQYHRLPLI	En_Gen
1.30 / 0.83 / 1.04 / 0.87 / 1.01 / 1.07	1.02	IISGSMVMESRNKNSVA	NAETREY	QHYDRLPLS	En_HC
0.80 / 0.77 / 0.90 / 0.41 / 0.85 / 1.08	0.80	KLPQSVLYESRNKNSVA	HASTRCS	QQYHRLPLS	GP_Gen
nd / 2.09 / nd / 1.52 / nd / 2.04	1.88	KSSQSVLYESRNKNSIA	WASTRSS	QQYHRLPLS	Ctrl
-0.08 / -0.27 / -0.34 / -0.38 / -0.17 / -0.26	-0.25	KLEQSCNYESRNKNSVA	NASTRES	QQYHRLPLS	GP_HC
1.14 / 0.24 / 1.13 / 0.11 / 0.66 / 0.71	0.67	KSSQSVLEESRNQNSVA	WASTRES	QQYHRLPLS	Ctrl
0.00 / 0.06 / -0.13 / -0.45 / -0.13 / 0.18	-0.08	KLSQSWLYESRNKNSVA	HASQRCS	QQYHRLPLS	GP_Gen
nd / nd / 0.41 / nd / 0.90 / nd	0.66	KLDEDVGNHTHDQKNIA	DESRVDR	QQYAHLPLS	En_Gibbs
1.10 / 0.85 / 0.63 / 0.74 / 0.70 / 0.89	0.82	QFDQSYRVGALNTDSIA	HAEMRVQ	QSYNRLPLM	En_Gibbs
-0.19 / -0.28 / -0.32 / -0.35 / -0.57 / -0.31	-0.34	KVSQLQDYESRNKNSVA	HASQREQ	QQYHRLPLS	GP_Gibbs
0.63 / 0.24 / 0.23 / 0.39 / 0.40 / 0.75	0.44	KISQMVTYESTWHNAIA	QTSEREA	QQYHRLPFS	En_HC
1.57 / nd / nd / nd / nd / nd	1.57	KSSQSVLYYGRNGNFVA	WASTRSS	QQYHRLPLS	Ctrl
2.44 / nd / nd / nd / 2.91 / nd	2.68	TIGQTLMYGMRNRSNVA	EVSERLN	QQYDRLPLL	En_Gen
nd / nd / 2.10 / nd / nd / nd	2.10	KSSQSVLYESRNKNNVA	WASTRES	QQYHRWPLS	Ctrl
-0.05 / -0.08 / -0.44 / -0.35 / -0.23 / -0.04	-0.20	KLSMVTGHLSMAKNNVA	EMVTREK	QQYNRLPLS	En_Gen
0.44 / 0.70 / 0.73 / 0.40 / 0.63 / 0.77	0.61	KFNQSVLYESRNKNSVA	TASTRES	QQYHRLPLS	Ctrl

Values of this round are not directly comparable with the first-round values of the same sequences. Some sequences occur more than once in the pool; their replicates are listed entry by entry, parted by semicolons. As a blank, each scFv also met three strains without target: over all light chain designs, 4% of these pairings were detected, typically at 2.64 and seldom below 1.59. The parent sequence was in this pool as ten entries: three were never detected, three once, and four in most replicates, with averages from 0.34 to 2.37. In the paper, a design with two or fewer of six values counts as a poor binder.

The measurements come from Li et al. 2023 (doi:10.1038/s41467-023-39022-2) through the FLAb antibody collection.